# Experimental data: ChEMBL document CHEMBL1145799, “Spirocyclopropyl beta-lactams as mechanism-based inhibitors of serine beta-lactamases. Synthesis by rhodium-catalyzed cyclopropanation of 6-diazopenicillanate sulfone” (J Med Chem, 2003)
# By UniProt entry, the sequences of proteins in these tests, tags left out.
# UniProt P05364, whole entry, looked up: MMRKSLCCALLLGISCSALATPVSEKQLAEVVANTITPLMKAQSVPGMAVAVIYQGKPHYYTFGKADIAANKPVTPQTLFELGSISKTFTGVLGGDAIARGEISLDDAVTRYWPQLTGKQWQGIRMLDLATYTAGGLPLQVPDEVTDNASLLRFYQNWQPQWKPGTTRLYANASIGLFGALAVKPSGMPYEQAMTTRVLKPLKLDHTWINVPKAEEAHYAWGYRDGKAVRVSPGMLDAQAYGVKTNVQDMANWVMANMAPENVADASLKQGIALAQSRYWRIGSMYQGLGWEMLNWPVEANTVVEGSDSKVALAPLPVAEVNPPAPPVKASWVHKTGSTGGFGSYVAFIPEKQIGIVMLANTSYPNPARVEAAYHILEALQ
# Tests used:
# [1] = molecular target: Beta-lactamase (Enterobacter cloacae) (UniProt P05364); conditions: Pseudomonas aeruginosa
# [2] = molecular target: Beta-lactamase (Enterobacter cloacae) (UniProt P05364); conditions: Serratia marcescens
# [3] = molecular target: Beta-lactamase (Enterobacter cloacae) (UniProt P05364); conditions: Escherichia coli
MIC [1],MIC [2],MIC [3],Compound
32 µg/mL,32 µg/mL,–,CC1(C)[C@H](C(=O)O)N2C(=O)[C@]3(C[C@@H]3OC3CCCCC3)[C@H]2S1(=O)=O.CCN1CCN(C(=O)N[C@@H](C(=O)N[C@@H]2C(=O)N3[C@@H]2SC(C)(C)[C@@H]3C(=O)O)c2ccccc2)C(=O)C1=O
> 64 µg/mL,32 µg/mL,> 64 µg/mL,CCN1CCN(C(=O)N[C@@H](C(=O)N[C@@H]2C(=O)N3[C@@H]2SC(C)(C)[C@@H]3C(=O)O)c2ccccc2)C(=O)C1=O
